# Reference: PubChem BioAssay AID2247 (Johns Hopkins Ion Channel Center, 2010)
# By UniProt entry, the sequences of proteins in these tests, tags left out.
# UniProt Q9QUQ5, whole entry: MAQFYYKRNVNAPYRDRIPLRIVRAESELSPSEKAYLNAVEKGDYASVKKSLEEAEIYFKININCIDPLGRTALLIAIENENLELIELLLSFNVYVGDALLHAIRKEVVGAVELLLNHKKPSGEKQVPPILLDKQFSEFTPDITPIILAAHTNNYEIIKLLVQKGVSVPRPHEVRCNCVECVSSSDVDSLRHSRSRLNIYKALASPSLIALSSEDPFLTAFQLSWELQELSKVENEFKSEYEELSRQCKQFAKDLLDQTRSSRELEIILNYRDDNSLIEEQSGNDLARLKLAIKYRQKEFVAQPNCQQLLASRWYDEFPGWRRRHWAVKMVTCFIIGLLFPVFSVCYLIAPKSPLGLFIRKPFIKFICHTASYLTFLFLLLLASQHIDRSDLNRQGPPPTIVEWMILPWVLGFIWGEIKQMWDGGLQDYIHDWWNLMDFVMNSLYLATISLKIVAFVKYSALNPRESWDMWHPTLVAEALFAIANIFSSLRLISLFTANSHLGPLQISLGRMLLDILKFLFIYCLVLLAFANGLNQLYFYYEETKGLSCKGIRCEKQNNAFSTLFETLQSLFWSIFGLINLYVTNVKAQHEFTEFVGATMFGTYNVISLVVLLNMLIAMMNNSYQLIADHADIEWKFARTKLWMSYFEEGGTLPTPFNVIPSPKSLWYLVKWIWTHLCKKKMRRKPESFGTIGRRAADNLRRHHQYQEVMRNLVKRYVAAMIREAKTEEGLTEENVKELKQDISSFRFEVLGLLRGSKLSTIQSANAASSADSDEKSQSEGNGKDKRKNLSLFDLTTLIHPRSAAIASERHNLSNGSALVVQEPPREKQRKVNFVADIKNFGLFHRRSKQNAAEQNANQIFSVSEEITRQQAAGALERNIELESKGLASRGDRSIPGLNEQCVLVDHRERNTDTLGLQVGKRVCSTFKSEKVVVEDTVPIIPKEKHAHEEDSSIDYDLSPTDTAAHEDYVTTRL
# This is a selection; strong and weak results do not stand in their true shares. Calls of active or inactive are those of the source.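 Rule for the calls: active = B-score over 3 SD under the library average, no early fluorescence shift, positive overall ratio signal; inactive = the rest.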
# Target: Short transient receptor potential channel 4 (Mus musculus) (UniProt Q9QUQ5)
# Test: blockers of DAMGO-evoked TRPC4 calcium flux – Fluo4 calcium, HEK293 TRPC4beta/mu-opioid cells, primary screen (AID 2247)
# Conditions: at 10 µM
row,SMILES,outcome
1,COc1ccc(OP(C)(=O)Nc2cccc(F)c2)cc1 (stereo unspecified),inactive
2,O=[N+]([O-])c1cc([N+](=O)[O-])c(-c2ccn[nH]2)s1,inactive
3,CC(C)NC(=O)NP(=O)(Oc1ccccc1)Oc1ccccc1,inactive
4,COc1ccccc1OP(C)(=O)Nc1cc(Cl)ccc1C (stereo unspecified),inactive
5,CCN(CC)C(=S)SC(NC=O)C(Cl)(Cl)Cl (stereo unspecified),inactive
6,C[As](=O)(O)c1cccc(C(=O)O)c1,inactive
7,O=[As](O)(c1ccc(O)cc1)c1ccccc1O,inactive
8,O=[N+]([O-])c1cc([N+](=O)[O-])c(Nc2cccnc2)c([N+](=O)[O-])c1,inactive
9,O=[N+]([O-])c1ccc2c(c1)C=Nc1ccccc1O2,inactive
10,Cc1ccc2nc3c(c(C)c2c1)CC(C(Cl)Cl)S3 (stereo unspecified),inactive
11,Cc1cccc(C)c1OP(C)(N)=O (stereo unspecified),inactive
12,Cc1ccc(OP(=O)(Nc2ccc([N+](=O)[O-])cn2)Oc2ccc(C)cc2)cc1,inactive
13,CC(C)(C)c1ccc(OP(C)(=O)Nc2ccc(SC(F)(F)F)cc2)cc1 (stereo unspecified),inactive
14,COc1ccc(N/C(=N/P(=O)(N2CCOCC2)N2CCOCC2)N2CCOCC2)cc1,inactive
15,Cc1cc(=O)[nH]c(N[N+](=O)[O-])n1,inactive
16,CCN(CC)CCCOC(=O)C(O)(c1ccccc1)c1ccccc1,inactive
17,O=C(OC1CN2CCC1CC2)C12CC3CC(CC(C3)C1)C2 (stereo unspecified),inactive
18,Cc1c2c(nc3ccccc13)SC(C(Cl)Cl)C2 (stereo unspecified),inactive
19,COc1cc(I)ccc1[As](=O)(O)O,inactive
20,COc1ccc2nc(NP(=O)(c3ccccc3)c3ccccc3)sc2c1,inactive
21,O=[N+]([O-])c1cc([N+](=O)[O-])c(O)c([N+](=O)[O-])c1.c1ccc(Oc2ccncc2)cc1,inactive
22,CCOC(=O)c1ccc(NC(=O)C(C)(CCl)SC)cc1 (stereo unspecified),inactive
23,CCOC(=O)c1ccc(NP(C)(=O)Oc2ccc(OC)cc2)cc1 (stereo unspecified),inactive

row,SMILES,outcome
1,CCOP(C)(=S)SCC(=O)NC(C)C(=O)O (stereo unspecified),inactive
2,O=C(OC1CN2CCC1CC2)c1cccc([N+](=O)[O-])c1 (stereo unspecified),inactive
3,CP(=O)(Nc1ccccn1)Oc1ccc(Cl)cc1 (stereo unspecified),inactive
4,CCC(C)N(CC(C)C)C(=S)SC(NC(C)=O)C(Cl)(Cl)Cl (stereo unspecified),inactive
5,CP(=O)(Oc1ccccc1)OC(c1ccccc1)C(F)(F)F (stereo unspecified),inactive
6,COP1(=S)c2c(C)nn(CCC#N)c2N=C(c2ccc(F)cc2)N1C (stereo unspecified),inactive
7,CP(=O)(Nc1ccc(SC(F)(F)F)cc1)Oc1ccc(Cl)cc1 (stereo unspecified),inactive
8,Cc1cccc(C)c1OP(C)(=O)Nc1ccc(SC(F)(F)F)cc1 (stereo unspecified),inactive
9,O=C(Nc1ccncc1[N+](=O)[O-])c1ccc([N+](=O)[O-])cc1[N+](=O)[O-],inactive
10,Cc1cc(C)cc(OP(C)(=O)Nc2ccc(SC(F)(F)F)cc2)c1 (stereo unspecified),inactive
11,CP(=O)(NC(=O)Nc1ccccc1)Oc1ccccc1 (stereo unspecified),inactive
12,O=C(COc1ccccc1)OC1CN2CCC1CC2 (stereo unspecified),inactive
13,CCc1ccc(OP(C)(=O)N2CCN(c3ccc([N+](=O)[O-])cc3)CC2)cc1 (stereo unspecified),inactive
14,CCOC(=O)Nc1cccc([As](=O)(O)O)c1,inactive
15,CP(=S)(Nn1cnnc1)Oc1ccccc1 (stereo unspecified),inactive
16,O=[N+]([O-])c1ccc(Nc2ccc(Oc3ccc([N+](=O)[O-])cc3[N+](=O)[O-])cc2)c([N+](=O)[O-])c1,inactive
17,CP(=O)(Nc1ccccc1Br)Oc1ccccc1 (stereo unspecified),inactive
18,COc1ccccc1OP(C)(=O)Nc1ccccc1 (stereo unspecified),inactive
19,Cc1cc(SC(NC=O)C(Cl)(Cl)Cl)ncn1 (stereo unspecified),inactive
20,O=P(Nc1ccccn1)(c1cccc2ccccc12)c1cccc2ccccc12,inactive
21,CCOC(=O)Nc1ccc([As](=O)(O)O)c(O)c1,inactive
22,Cc1cc(SC(NC(=O)c2ccccc2)C(Cl)(Cl)Cl)nc(C(C)C)n1 (stereo unspecified),inactive
23,CCCCOc1ccc(C(=O)NCC2(N3CCCCC3)CCCCC2)cc1OC,inactive
